The list shows a part of the results, in another mix than the full data. Some tests of the compounds listed are not included; inactive here does not mean inactive elsewhere. The source made the active and inactive calls.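 The calls were made as follows: active = inhibition above the screen-wide average plus 3 SD (cut at about 13% in these data); inactive = the rest.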

Protein sequences, listed by entry. Tags and fused reporters are not part of them. Residues count along the entry.
UniProt O60755, 1-299 limits assumed: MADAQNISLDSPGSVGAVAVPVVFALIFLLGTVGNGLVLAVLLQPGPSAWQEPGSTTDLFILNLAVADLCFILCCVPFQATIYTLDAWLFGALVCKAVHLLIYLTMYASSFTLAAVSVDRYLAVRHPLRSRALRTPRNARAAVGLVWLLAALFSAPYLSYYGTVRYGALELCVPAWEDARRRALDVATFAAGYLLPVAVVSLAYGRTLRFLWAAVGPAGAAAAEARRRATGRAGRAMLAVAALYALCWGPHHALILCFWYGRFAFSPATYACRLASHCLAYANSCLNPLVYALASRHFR

This assay addresses Galanin receptor type 3 (Homo sapiens) (UniProt O60755). Briefly: GalR3 antagonists in HEK293 cells, primary screen, cell-based, fluorescence readout (AID 651719).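 Also: forskolin and galanin both at EC90 stimulate the cells; cAMP rise reported by CNG channel membrane potential dye signal; 0% = forskolin plus galanin with DMSO and 100% = forskolin alone.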 Particulars: HEK293 GalR3-CNG cAMP membrane potential fluorescence; at 3 µM; stronger effect = higher value; galR3 body fused to GalR1 C-terminus.
On to `CC(C)N1C(=O)CC2(CCN(CCOC(=O)C(O)(c3ccccc3)c3ccccc3)CC2)C1=O`, for which the inhibition is inactive: -2.33%.

For the compound `CCN(CC)CC(C)C(C)OC(=O)C(O)(c1ccccc1)c1ccccc1` (stereo unspecified), the inhibition was inactive: 0.72%.

Turning to `COc1cc(SC)ccc1C(=O)NCC1(N(C)C)CCCCC1`, the inhibition was inactive: -8.15%.

Regarding `Cc1ccc(C(=O)NCC2(N3CCCCC3)CCCCC2)cc1`, the inhibition is inactive: -4.69%.

In the case of `O=C(NCC1(N2CCCCC2)CCCCC1)c1cc([N+](=O)[O-])ccc1Cl`, the inhibition is inactive: 3.78%.

On to `CN1[C@@H]2CC[C@H]1CC(OC(=O)C(O)(c1ccccc1)c1ccccc1)C2` (stereo partly specified), for which the inhibition is inactive: -8.35%.

With `C=CCN1CCN(CCOC(=O)C(O)(c2ccccc2)c2ccccc2)CC1`, the inhibition is inactive: -7.07%.

Turning to `O=C(NCC1(N2CCCCC2)CCCCC1)c1cc(F)c(F)cc1Cl`, the inhibition was inactive: -6.35%.

For `Cc1cc(C(=O)NCC2(N3CCCCC3)CCCCC2)ccc1[N+](=O)[O-]`, the inhibition is inactive: -8.07%.

Regarding `CCN1CCCC(OC(=O)C2(O)c3ccccc3C=Cc3ccccc32)C1` (stereo unspecified), the inhibition was inactive: -1.15%.

As to `O=C(NCC1(N2CCCCC2)CCCCC1)c1cccc(Br)c1`, the inhibition was inactive: -5.96%.

As for `COc1ccc(C(=O)NCC2(N(C)C)CCCCC2)cc1`, the inhibition is inactive: 1.56%.

`Cc1ccccc1C(=O)NCC1(N2CCCCC2)CCCCC1`: the inhibition was inactive: -6.41%.

Turning to `CN(C)C1CCCC1OC(=O)C(O)(c1ccccc1)c1ccccc1` (stereo unspecified), the inhibition is inactive: -2.72%.

Take `CN(C)c1ccc(C(=O)NCC2(N(C)C)CCCCC2)cc1`: the inhibition was inactive: -3.57%.

As to `COc1cccc(C(=O)NCC2(N3CCCCC3)CCCCC2)c1`, the inhibition was inactive: -2.36%.

With `COc1ccc(Cl)cc1C(=O)NCC1(N(C)C)CCCCC1`, the inhibition was inactive: -11.4%.

In the case of `O=C(NCC1(N2CCCCC2)CCCCC1)c1cccc(Cl)c1`, the inhibition is inactive: 0.35%.

Regarding `CN(C)C1(CNC(=O)c2ccc(Br)cc2)CCCCC1`, the inhibition is inactive: 3.22%.

Turning to `COc1cc(C(=O)NCC2(N(C)C)CCCCC2)c([N+](=O)[O-])cc1OC`, the inhibition was inactive: -8.66%.

As for `COc1ccc(Br)c(C(=O)NCC2(N3CCCCC3)CCCCC2)c1`, the inhibition was inactive: -2.02%.

Take `C=C(C)C#CC(O)(C(=O)OC1CCN(C)CC1)c1ccccc1` (stereo unspecified): the inhibition is inactive: 2.03%.

In the case of `CN(C)c1cccc(C(=O)NCC2(N(C)C)CCCCC2)c1`, the inhibition is inactive: 0.32%.

With `CC(C)Oc1ccc(C(=O)NCC2(N(C)C)CCCCC2)cc1`, the inhibition was inactive: -10.7%.

As for `O=C(OCCN1CCCC1)C(O)(c1ccccc1)c1ccccc1`, the inhibition is inactive: -5.66%.

On to `O=C(OC1CN2CCC1CC2)C(CO)(c1ccccc1)c1ccccc1` (stereo unspecified), for which the inhibition is inactive: -4.04%.

These data come from PubChem BioAssay AID651719 (The Scripps Research Institute Molecular Screening Center, 2012).
